Data on one substance can be found in patent US20090280109A1, “ILT3 and ILT4-related compositions and methods” (The Trustees of Columbia University in the City of New York, priority 2001, published 2009).

Experiment [1] relates to CD4+ TH cells. Conditions: previously shown (refs 12, 15); cited from earlier work.
Experiment [2] has as its system CD4+ TH cells. Nature of the experiment: Three-day proliferation assay ([3H]thymidine incorporation). It counts as cell-based, human. Conditions: for CD4+ TH responsiveness to CD8+CD28− TS cell-treated APCs: APCs preincubated 18 h with TS cells, rIL-2 10 U/ml. The source says:
Before testing, responding T cells were depleted of natural killer cells with the use of goat anti-mouse IgG magnetic beads (Dynal, Lake Success, N.Y.) coupled with mAbs to CD16 and CD56 (Becton Dickinson, San Jose, Calif.). CD4^+ and CD8^+ T cells were obtained from natural killer and CD14^+-depleted cell suspensions by negative selection with the use of CD8^+ and CD4^+ magnetic beads, respectively (Dynal). CD8^+ T cell suspensions were then twice depleted of CD28^+ T cells with the use of goat anti-mouse IgG beads (Dynal) coupled with monoclonal anti-CD28 (Becton Dickinson). The purity of the CD4^+ and CD8^+ CD28^− T cell subsets was monitored by cytofluorographic analysis. All CD4^+ and CD8^+CD28^− T cell suspensions that were used in functional assays contained <2% CD16^+CD56^+ cells. CD4^+ T cells were >98% positive for the CD4 and CD45RO markers. The population of CD8^+CD28^− T cells contained >98% cells that were positive for CD8 and <2% CD28^hi cells.
Proliferation assays were done after two or three cycles of stimulation of human T cells with allogeneic CD2-depleted APCs or KG1 cells. Responding CD4^+ T cells (1×10^5 cells/well) were stimulated in triplicate with irradiated DCs (2.5×10^4 cells/well), CD14^+ monocytes (1×10^5) or KG1 cells (5×10^4) in the absence or presence of human CD8^+CD28^− T cells (1×10^5 cells/well). Cultures were set up in 96-well trays in a total volume of 0.2 ml. In some experiments, monoclonal anti-ILT3, a mixture of mAbs to ILT4 and HLA class I (W6/32, ATCC) or exogenous rIL-2 (10 U/ml) were added at the start of incubation. After 48 h of incubation, the cultures were pulsed with [^3H]thymidine and collected 18 h later. [^3H]thymidine incorporation was determined by scintillation spectrometry.
To determine the effect of CD8^+CD28^− TS cells on CD4^+ TH cell alloreactivity, 12 different TCLs were generated. […]

For the substance “rIL-2: Recombinant IL-2 (Boehringer Mannheim), 10 U/ml”, in the experiment on CD4+ TH cells [1], the “CD4+ TH cell proliferation in the presence of CD8+CD28− TS cells” value is on record as “restored”. The “CD4+ TH responsiveness to CD8+CD28− TS cell-treated APCs” value with CD4+ TH cells [2] was “restored”; with CD4+ TH cells [2] (listed as rIL2), “restores”. In addition, the “CD4+ TH cell proliferation in response to KG1.ILT3 or KG1.ILT4 cells” value in the experiment with CD4+ TH cells [2] (ILT3- or ILT4-transduced KG1 cells as stimulators) is “restored”.
